Test system: human DRD2 receptor
Test: GRAB-GDA3.0 fluorescence response in HEK293T cells, drug perfusion
Type: cell-based

CCCN1CCC[C@@H]2Cc3n[nH]cc3C[C@H]21 [quinpirole]
activation or block of GRAB-GDA3.0: activated

From patent US20200400567A1, “FUSION POLYPEPTIDE” (PEKING UNIVERSITY, priority 2017, published 2020)
